Assay results: patent US10272087B2, “Pteridines as FGFR inhibitors” (ASTEX THERAPEUTICS LIMITED, priority 2012, dated 2019)

System: Ba/F3-KDR-transfected cells
Assay: Ba/F3-KDR (minus IL3 or plus IL3) cellular proliferation assay
Type: cell-based
Conditions: plus IL3 (counterscreen, 10 ng/ml murine IL3); read-out: BAF3-KDR (PLUS IL3 pIC50) (converted)
Method: Ba/F3-KDR (Minus IL3 or Plus IL3) (Cellular Proliferation Assay)
As a counterscreen the same experiment was performed in the presence of 10 ng/ml murine IL3.

Row | Compound | IC50 [µM]
1 | COc1cc(OC)c(F)c(N(C[C@@H]2CCC(=O)N2)c2ncc3ncc(-c4cnn(C)c4)nc3n2)c1 [Compound 11] | > 10
2 | COc1cc(OC)c(F)c(N(Cc2ncc[nH]2)c2ncc3ncc(-c4cnn(C)c4)nc3n2)c1F [Compound 2] | > 10
3 | COc1cc(OC)c(F)c(N(Cc2ncc[nH]2)c2ncc3ncc(-c4cnn(C)c4)nc3n2)c1 [Compound 13] | > 10
4 | COc1cc(OC)c(F)c(N(Cc2nccn2S(=O)(=O)N(C)C)c2ncc3ncc(-c4cnn(C)c4)nc3n2)c1F [Compound 1] | > 10
5 | COc1cc(OC)c(F)c(N(C[C@H]2CCC(=O)N2)c2ncc3ncc(-c4cnn(C)c4)nc3n2)c1 [Compound 10] | > 10
